The values below come from US20130183237A1 (priority 2007, published 2013).

The conditions of data set [1]: rat; cited from earlier work.
For another data set, the target named is recombinant α-thrombin (Homo sapiens, UniProt P00734). The following applies: S2238 100 μM.
The conditions of data set [2]: mean, total radioactivity, male rats, single i.v. 0.4 mg/kg.
The target in data set [3] is human plasma derived thrombin ([…], Japan) (human), P00734.
Data set [4] has the same target. Nature of the data set: cell-based or functional assay.

As to hirudin, the “radioactivity recovered in the kidney” value in data set [1] was 80%.

Usually inhibition stands for the relative decrease from the control value, in per cent. One may read the IC50 as the midpoint of a concentration-inhibition curve. As to “SDQGDVAEPKMHKT(hex)APPFDFEAIPEEYLDDES [variegin]”, the “inhibition at equimolar concentrations of thrombin and inhibitor” value at recombinant α-thrombin (3.33 nM thrombin and 3.33 nM inhibitor) is listed as approximately 80%. Further, the IC50 on recombinant α-thrombin (read-out: IC50 of inhibition of thrombin amidolytic activity, thrombin 3.33 nM, incubation time not stated or independent of it) is approximately 0.99 nM. For the same molecule, in data set [2], the “t½^a, apparent terminal elimination half life” value worked out at 117.2 h and the “t½^b, apparent distribution half life (plasma half-life)” value was determined as 0.86 h.

What is called Ki is the dissociation constant of the complex between target and ligand, obtained from inhibition or displacement. MHKTAPPFDFEEIPEEYLDDES (modifications not checked) [MH22A22E] came in with a Ki in data set [3] of 15.1 nM. For the molecule MHKTAPPFDFEAIPEEYL (modifications not checked) [MH18], the IC50 of inhibition of thrombin amidolytic activity (S2238), pre-incubation 0 min in data set [4] came to 10.9 nM. Take DVAEPKMHKTAPPFDFEAIPEEYL (modifications not checked) [DV24]: in data set [4], the IC50 of inhibition of thrombin amidolytic activity (S2238), pre-incubation 0 min was determined as 7.49 nM. Moreover, in data set [3], the Ki came to 0.306 nM. Consider EPKMHKTAPPFDFEEIPEEYLDDES (modifications not checked) [EP25A22E], for which the IC50 of inhibition of thrombin amidolytic activity (S2238), pre-incubation 0 min in data set [4] turned out to be 124 nM. Moreover, the inhibition constant (Ki) in data set [3] was 0.311 nM.
